Tests used:
[1] = biological target: full length carboxy-6 × His tagged STC1 (STC1-HT), human Stanniocalcin-1 (human) (UniProt P52823); assay: SEC; data not shown
[2] = biological target: full length carboxy-6 × His tagged STC1 (STC1-HT), human Stanniocalcin-1 (human) (UniProt P52823); assay: dynamic light scattering; recombinant STC1 sample inspected before SAXS for monodispersity
[3] = biological target: full length carboxy-6 × His tagged STC1 (STC1-HT), human Stanniocalcin-1 (human) (UniProt P52823); assay: SAXS; 4°C, 60 mM MES 200 mM NaCl pH 6.5, 0.15 and 0.18 mg/mL; molecular mass from I(0) with BSA as standard

Measured: stoichiometry N

full length carboxy-6 × His tagged STC1 (STC1-HT), human Stanniocalcin-1 (from UniProt P52823-1 34-247) (natural protein)
2: all assays above

— publication PMC2744999
